Molecular target: T1, C22V Nek2 kinase domain (aa 1-271) (Homo sapiens, UniProt P51955, C22V)
T1 sequence (P51955 1-271 C22V): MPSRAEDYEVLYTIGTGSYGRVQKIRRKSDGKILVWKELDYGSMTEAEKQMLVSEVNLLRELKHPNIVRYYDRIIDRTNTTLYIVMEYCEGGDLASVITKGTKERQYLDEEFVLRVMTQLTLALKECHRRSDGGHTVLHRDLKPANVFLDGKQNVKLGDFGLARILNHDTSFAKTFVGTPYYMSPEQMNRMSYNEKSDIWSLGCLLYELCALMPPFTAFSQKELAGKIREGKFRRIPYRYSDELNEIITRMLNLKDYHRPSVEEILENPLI
Details: ten-fold molar excess of compound, physiological pH

Protein sequences, listed by entry. Tags and fused reporters are not part of them. Lines headed by an entry give the natural chain unless they say otherwise; changes in a name come on top.
UniProt P51955: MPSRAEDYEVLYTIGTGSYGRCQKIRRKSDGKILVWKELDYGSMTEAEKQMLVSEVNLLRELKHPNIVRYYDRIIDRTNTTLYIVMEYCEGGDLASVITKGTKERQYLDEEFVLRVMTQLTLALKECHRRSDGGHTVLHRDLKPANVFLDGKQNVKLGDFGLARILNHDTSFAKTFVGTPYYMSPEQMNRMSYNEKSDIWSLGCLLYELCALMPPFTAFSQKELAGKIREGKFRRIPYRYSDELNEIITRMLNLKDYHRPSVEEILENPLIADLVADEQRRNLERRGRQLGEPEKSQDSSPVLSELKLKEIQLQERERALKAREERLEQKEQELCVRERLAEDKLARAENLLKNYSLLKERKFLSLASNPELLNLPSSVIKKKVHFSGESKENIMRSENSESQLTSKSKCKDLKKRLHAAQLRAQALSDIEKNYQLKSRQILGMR

| Alkylation of C22V Nek2 kinase domain (ESI-MS) | Structure (SMILES) |
| --- | --- |
| No labeling | O=C1Nc2ccc(C(=O)CCl)cc2/C1=C/c1ccc[nH]1 [compound 2, (Z)-3-((1H-Pyrrol-2-yl)methylene)-5-(2-chloroacetyl)indolin-2-one] |
| No labeling | C#CC(=O)Nc1ccc2c(c1)/C(=C/c1ccc[nH]1)C(=O)N2 [compound 8, (Z)-N-(3-((1H-Pyrrol-2-yl)methylene)-2-oxoindolin-5-yl)propiolamide] |

From paper PMC3663048 (Journal of medicinal chemistry, 2011)
